In patent US20150306241A1, “COPOLYMERS FOR THE DELIVERY OF DRUGS INTO CELLS” (published 2015):

Assays:
[1] = system: A549 cells; test: Apoptosis analysis by FACS, Annexin V/Propidium Iodide double staining; settings: A549, 29.5 ng/mL for 72 h
[2] = In vitro drug release by dialysis, RP-HPLC; settings: dialysis for 24 h at 37° C., 1M sodium salicylate, PTX/methanol/water mixture
[3] = In vivo side toxicity assessment; settings: 5 mg/Kg PTX twice a week for 4 weeks, end of experiment

paclitaxel
necrotic/dead cells (PI positive only) [1]: 17.1%
percentage of early apoptotic cells (Annexin positive only) [1]: 2.8%
percentage of late apoptotic cells (both Annexin and PI positive) [1]: 10.4%
percentage of viable cells [1]: 69.7%
PTX released from the dialysis tube [2]: about 48%
white blood cell counts [3]: around 30 % of the HBSS group
